# PubChem BioAssay (Tox21)
# Protein sequences, listed by entry. Tags and fused reporters are not part of them. Lines headed by an entry give the natural chain unless they say otherwise; changes in a name come on top.
# UniProt P03372, whole entry, looked up: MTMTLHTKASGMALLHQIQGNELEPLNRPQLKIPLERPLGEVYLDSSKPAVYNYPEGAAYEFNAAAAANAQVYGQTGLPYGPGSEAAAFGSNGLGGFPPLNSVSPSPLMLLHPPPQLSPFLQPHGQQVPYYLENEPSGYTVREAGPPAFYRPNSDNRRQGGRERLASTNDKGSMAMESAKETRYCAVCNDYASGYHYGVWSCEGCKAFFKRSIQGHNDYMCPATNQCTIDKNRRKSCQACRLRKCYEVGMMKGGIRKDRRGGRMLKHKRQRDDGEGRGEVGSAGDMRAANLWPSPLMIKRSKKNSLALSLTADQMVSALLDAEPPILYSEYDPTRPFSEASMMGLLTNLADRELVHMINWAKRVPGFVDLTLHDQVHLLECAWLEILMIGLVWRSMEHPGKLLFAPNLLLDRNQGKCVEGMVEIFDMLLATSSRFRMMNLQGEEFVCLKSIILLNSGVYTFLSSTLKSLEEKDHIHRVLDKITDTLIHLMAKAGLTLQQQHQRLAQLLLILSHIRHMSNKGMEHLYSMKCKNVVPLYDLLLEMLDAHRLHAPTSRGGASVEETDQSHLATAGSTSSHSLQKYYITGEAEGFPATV
# UniProt Q96RI1: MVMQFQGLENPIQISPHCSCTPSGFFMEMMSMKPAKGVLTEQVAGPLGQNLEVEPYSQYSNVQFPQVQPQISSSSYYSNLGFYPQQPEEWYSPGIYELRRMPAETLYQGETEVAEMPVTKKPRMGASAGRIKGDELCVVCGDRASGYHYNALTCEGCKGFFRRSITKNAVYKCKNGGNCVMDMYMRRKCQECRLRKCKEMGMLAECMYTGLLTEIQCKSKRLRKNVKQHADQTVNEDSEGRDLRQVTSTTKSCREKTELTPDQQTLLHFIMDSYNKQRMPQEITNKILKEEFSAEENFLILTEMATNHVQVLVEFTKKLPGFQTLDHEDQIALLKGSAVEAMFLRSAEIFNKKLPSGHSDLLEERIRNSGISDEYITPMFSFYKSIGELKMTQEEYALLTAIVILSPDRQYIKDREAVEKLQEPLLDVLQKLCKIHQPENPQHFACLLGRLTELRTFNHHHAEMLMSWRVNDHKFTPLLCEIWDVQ
# UniProt Q14994: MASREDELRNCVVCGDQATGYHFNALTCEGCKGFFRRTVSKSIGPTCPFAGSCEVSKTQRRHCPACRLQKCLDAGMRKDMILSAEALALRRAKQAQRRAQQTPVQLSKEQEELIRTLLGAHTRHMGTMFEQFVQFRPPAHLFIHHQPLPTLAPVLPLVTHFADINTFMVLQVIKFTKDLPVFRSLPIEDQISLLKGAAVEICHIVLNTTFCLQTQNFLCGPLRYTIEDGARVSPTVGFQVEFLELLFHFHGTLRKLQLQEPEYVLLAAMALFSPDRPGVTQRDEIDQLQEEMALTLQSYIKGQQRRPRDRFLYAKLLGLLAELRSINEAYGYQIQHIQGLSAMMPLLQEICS
# UniProt P10275: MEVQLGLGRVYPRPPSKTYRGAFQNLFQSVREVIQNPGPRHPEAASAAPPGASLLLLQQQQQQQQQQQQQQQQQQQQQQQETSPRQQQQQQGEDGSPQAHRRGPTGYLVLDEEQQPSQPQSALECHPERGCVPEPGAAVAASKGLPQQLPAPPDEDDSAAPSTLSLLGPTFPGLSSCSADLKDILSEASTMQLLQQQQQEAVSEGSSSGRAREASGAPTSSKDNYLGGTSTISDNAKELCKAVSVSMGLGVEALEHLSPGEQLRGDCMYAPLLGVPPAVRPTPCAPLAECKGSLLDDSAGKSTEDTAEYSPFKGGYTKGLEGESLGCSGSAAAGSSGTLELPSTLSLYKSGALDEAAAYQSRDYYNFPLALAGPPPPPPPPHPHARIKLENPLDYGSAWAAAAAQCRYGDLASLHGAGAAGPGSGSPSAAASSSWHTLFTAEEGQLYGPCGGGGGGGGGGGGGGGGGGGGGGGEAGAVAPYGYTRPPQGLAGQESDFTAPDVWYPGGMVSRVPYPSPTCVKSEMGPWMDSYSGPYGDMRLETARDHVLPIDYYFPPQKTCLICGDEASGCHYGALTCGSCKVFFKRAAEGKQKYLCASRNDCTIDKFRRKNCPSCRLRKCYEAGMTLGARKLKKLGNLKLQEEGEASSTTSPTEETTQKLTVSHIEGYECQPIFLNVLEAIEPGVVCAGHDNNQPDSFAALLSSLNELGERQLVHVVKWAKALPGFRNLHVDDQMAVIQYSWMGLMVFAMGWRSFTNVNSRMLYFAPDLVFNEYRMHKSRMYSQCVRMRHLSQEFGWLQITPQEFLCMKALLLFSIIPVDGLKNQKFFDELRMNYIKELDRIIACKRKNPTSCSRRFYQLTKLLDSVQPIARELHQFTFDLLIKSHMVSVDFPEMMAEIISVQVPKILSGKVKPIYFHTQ
# UniProt Q92731, whole entry, looked up: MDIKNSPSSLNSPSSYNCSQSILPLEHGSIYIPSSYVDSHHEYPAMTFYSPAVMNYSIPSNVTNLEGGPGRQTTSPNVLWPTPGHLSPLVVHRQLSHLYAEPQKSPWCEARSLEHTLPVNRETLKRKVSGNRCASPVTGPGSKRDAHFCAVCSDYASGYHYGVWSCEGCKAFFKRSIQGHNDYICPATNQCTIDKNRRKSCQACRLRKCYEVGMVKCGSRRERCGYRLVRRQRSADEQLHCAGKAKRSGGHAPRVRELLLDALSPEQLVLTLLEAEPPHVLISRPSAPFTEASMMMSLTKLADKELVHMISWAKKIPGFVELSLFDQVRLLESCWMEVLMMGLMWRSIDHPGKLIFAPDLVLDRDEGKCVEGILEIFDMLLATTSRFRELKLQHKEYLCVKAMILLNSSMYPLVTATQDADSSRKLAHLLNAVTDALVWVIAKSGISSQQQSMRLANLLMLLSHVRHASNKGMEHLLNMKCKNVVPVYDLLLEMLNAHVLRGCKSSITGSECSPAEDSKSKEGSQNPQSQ
# UniProt P34981: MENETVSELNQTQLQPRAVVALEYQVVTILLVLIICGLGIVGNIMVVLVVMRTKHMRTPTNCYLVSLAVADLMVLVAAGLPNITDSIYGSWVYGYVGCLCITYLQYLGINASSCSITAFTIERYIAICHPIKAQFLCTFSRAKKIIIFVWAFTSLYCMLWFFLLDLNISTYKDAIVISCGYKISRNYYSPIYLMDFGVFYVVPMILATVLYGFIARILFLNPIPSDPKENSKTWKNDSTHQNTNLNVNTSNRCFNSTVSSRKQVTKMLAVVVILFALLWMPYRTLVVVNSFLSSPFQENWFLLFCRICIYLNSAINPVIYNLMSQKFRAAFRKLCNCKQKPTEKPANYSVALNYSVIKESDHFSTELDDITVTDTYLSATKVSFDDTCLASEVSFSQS
# Several values for one entry are separate records, joined by “and”; a condition that tells them apart may be missing. Where a call stands in place of a potency, no number is given. Equal values may be shown once. For some assays here: Most of the hits are listed elsewhere, so they are rarer here than in the full data. Inconclusive results are not listed. This is a selection; strong and weak results do not stand in their true shares. Activity calls are given as the source filed them. Unless noted, the call rests on the fitted dose curve; in most records, active means well fitted curve in the direction sought with a large enough effect in the repeat runs; inconclusive means weak or mixed curves; inactive means no such curve, though single readings can be large; an effect the other way counts as inactive or inconclusive.
# Experiments:
# [1] = target: Estrogen receptor (Homo sapiens) (UniProt P03372); assay: qHTS assay to identify small molecule agonists of the estrogen receptor alpha (ER-alpha) signaling pathway (AID 743075; calls by dose curve;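 further: HEK293 GripTite cells with ER-alpha and UAS-driven beta-lactamase reporter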; further: potency means the concentration at half of the fitted maximal effect)
# [2] = target: Estrogen receptor (Homo sapiens) (UniProt P03372); assay: qHTS assay to identify small molecule agonists of the estrogen receptor alpha (ER-alpha) signaling pathway using the BG1 cell line (AID 743079); further: nearly all actives have a fitted effect of over 20% in size; further: potency means the concentration at half of the fitted maximal effect
# [3] = target: Estrogen receptor (Homo sapiens) (UniProt P03372); assay: qHTS assay to identify small molecule antagonists of the estrogen receptor alpha (ER-alpha) signaling pathway using the BG1 cell line in the presence of 0.1 nM 17-beta-estradiol (AID 1259244); conditions: VM7Luc4E2 (BG1) ERE-luciferase, antagonist mode, 0.1 nM E2, 22 h; further: nearly all actives have a fitted effect of over 50% in size
# [4] = target: Estrogen receptor (Homo sapiens) (UniProt P03372); assay: qHTS assay to identify small molecule agonists of the estrogen receptor alpha (ER-alpha) signaling pathway in the presence of an antagonist (AID 1259383; calls by dose curve; further: top concentration of the series differs between compounds; nearly all actives have a fitted effect of over 15% in size)
# [5] = target: Bile acid receptor (Homo sapiens) (UniProt Q96RI1); assay: qHTS assay to identify small molecule antagonists of the farnesoid-X-receptor (FXR) signaling pathway (AID 743217; active means well fitted inhibition curve with a large enough effect in the signal ratio in the repeat runs, not every such curve was filed as active; the % refers to the signal ratio); conditions: HEK293T FXR-UAS-bla, beta-lactamase ratio, CDCA-stimulated, 16 h; at 62.6 µM (top of the series)
# In short: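 FXR-UAS-bla HEK 293T cells pre-incubated 5 h at 37 °C, then exposed to compounds with chenodeoxycholic acid (50 uM final) for 16 h at 37 °C. Beta-lactamase reporter read by LiveBLAzer B/G FRET substrate fluorescence after 2 h at room temperature.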
# [6] = target: Bile acid receptor (Homo sapiens) (UniProt Q96RI1); assay: qHTS assay to identify small molecule agonists of the farnesoid-X-receptor (FXR) signaling pathway (AID 743220; active means well fitted activation curve with a large enough effect in the signal ratio in the repeat runs, not every such curve was filed as active; the % refers to the signal ratio); conditions: HEK293T FXR-UAS-bla, beta-lactamase FRET ratio, 16 h; at 62.6 µM (top of the series)
# [7] = qHTS assay to identify small molecule antagonists of the retinoic acid receptor (RAR) signaling pathway (AID 1159552; further: nearly all actives have a fitted effect of over 50% in size)
# In short: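 Retinol signaling pathway inhibitors screened in C3RL4 RARE-luciferase reporter cells seeded overnight at 37 C, then compounds added with 1 uM (final) retinol as pathway substrate. After 6 hr at 37 C, luciferase luminescence read after 30 min at room temperature.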
# [8] = target: Nuclear receptor subfamily 1 group I member 3 (Homo sapiens) (UniProt Q14994); assay: qHTS assay to identify small molecule agonists of the constitutive androstane receptor (CAR) signaling pathway (AID 1224839); conditions: HepG2 hCAR CYP2B6-luciferase, agonist mode, 24 h;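 further: HepG2 cells stably carrying human CAR and a CYP2B6 luciferase reporter; nearly all actives have a fitted effect of over 15% in size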
# [9] = target: Androgen receptor (Homo sapiens) (UniProt P10275); assay: qHTS assay to identify small molecule agonists of the androgen receptor (AR) signaling pathway using the MDA cell line (AID 743040; further: nearly all actives have a fitted effect of over 20% in size); conditions: MDA-kb2 AR-luc cells, MMTV luciferase, 16 h; at 70.3 µM (top of the series); active compounds read high
# [10] = target: Androgen receptor (Homo sapiens) (UniProt P10275); assay: qHTS assay to identify small molecule antagonists of the androgen receptor (AR) signaling pathway using the MDA cell line (AID 743042; further: nearly all actives have a fitted effect of over 55% in size)
# [11] = target: Androgen receptor (Homo sapiens) (UniProt P10275); assay: qHTS assay to identify small molecule antagonists of the androgen receptor (AR) signaling pathway using the MDA cell line in the presence of 0.5 nM R1881 (AID 1259243); further: nearly all actives have a fitted effect of over 50% in size
# [12] = target: Androgen receptor (Homo sapiens) (UniProt P10275); assay: qHTS assay to identify small molecule agonists of the androgen receptor (AR) signaling pathway in the presence of an antagonist (AID 1259381; calls by dose curve; further: nearly all actives have a fitted effect of over 15% in size; further: potency means the concentration at half of the fitted maximal effect)
# [13] = target: Nuclear receptor subfamily 1 group I member 2 (Homo sapiens) (UniProt O75469); assay: Human pregnane X receptor (PXR) small molecule agonists, qHTS assay (AID 1346982); further: nearly all actives have a fitted effect of over 35% in size
# In short: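 PXR-Luc HepG2 cells (CYP3A4 promoter-driven luciferase) were seeded in medium with 5% charcoal-stripped FBS, left 5 hr at 37 C, then exposed to compounds in DMSO for 24 hr. Luminescence was read after ONE-Glo addition.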
# [14] = target: Nuclear receptor subfamily 1 group I member 2 (Homo sapiens) (UniProt O75469); assay: Human pregnane X receptor (PXR) activation by small molecules, qHTS assay (AID 1346985); further: nearly all actives have a fitted effect of over 40% in size
# [15] = target: Estrogen receptor beta (Homo sapiens) (UniProt Q92731); assay: qHTS assay to identify small molecule agonists of the estrogen receptor beta (ER-beta) signaling pathway (AID 1259377; active means well fitted activation curve with a large enough effect in the signal ratio in the repeat runs, not every such curve was filed as active; the % refers to the signal ratio); conditions: ER-beta-UAS-bla HEK293T, beta-lactamase FRET ratio, 16 h; at 92.4 µM (top of the series) unless noted
# [16] = target: Estrogen receptor (Homo sapiens) (UniProt P03372); assay: qHTS assay to identify small molecule antagonists of the estrogen receptor alpha (ER-alpha) signaling pathway (AID 743069; active means well fitted curve in the direction sought with a large enough effect in the signal ratio in the repeat runs, not every such curve was filed as active; the % refers to the signal ratio)
# [17] = target: Androgen receptor (Homo sapiens) (UniProt P10275); assay: qHTS assay to identify small molecule antagonists of the androgen receptor (AR) signaling pathway (AID 743035; active means well fitted inhibition curve with a large enough effect in the signal ratio in the repeat runs, not every such curve was filed as active; the % refers to the signal ratio)
# [18] = target: Nuclear receptor subfamily 1 group I member 3 (Homo sapiens) (UniProt Q14994); assay: qHTS assay to identify small molecule antagonists of the constitutive androstane receptor (CAR) signaling pathway (AID 1224838); conditions: HepG2-CYP2B6-hCAR luciferase, CITCO-stimulated, 24 h; at 42.5 µM (top of the series);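 further: HepG2 cells stably expressing hCAR with CYP2B6 luciferase reporter stimulated by CITCO; nearly all actives have a fitted effect of over 40% in size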
# [19] = target: Thyrotropin-releasing hormone receptor (Homo sapiens) (UniProt P34981); assay: qHTS assay to identify small molecule antagonists of the thyrotropin-releasing hormone receptor (TRHR) signaling pathway (AID 1346877; active means well fitted inhibition curve with a large enough effect in the repeat runs, not every such curve was filed as active); conditions: TRHR-HEK293, TRH-induced calcium fluorescence, antagonist mode
# [20] = target: Nuclear receptor subfamily 1 group I member 2 (Homo sapiens) (UniProt O75469); assay: CYP3A4 induction through human pregnane X receptor (PXR) by small molecules, qHTS assay (AID 1346984); further: nearly all actives have a fitted effect of over 40% in size
# In short: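 DPX-2 cells (HepG2 co-transfected with PXR and CYP3A4 promoter-luciferase) treated with compounds 24 h at 37C; luciferin-IPA CYP3A4 substrate 3uM final added for 3 h, then One-Glo; luminescence read. qHTS format.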
# [21] = target: Estrogen receptor beta (Homo sapiens) (UniProt Q92731); assay: qHTS assay to identify small molecule antagonists of the estrogen receptor beta (ER-beta) signaling pathway (AID 1259378; active means well fitted inhibition curve with a large enough effect in the signal ratio in the repeat runs, not every such curve was filed as active; the % refers to the signal ratio; further: potency means the concentration at half of the fitted maximal effect)
# In short: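 ER-beta-UAS-bla HEK293T cells in 2% charcoal-stripped FBS medium treated with compound plus 1nM final 17-beta-estradiol for 16 hr at 37C. Beta-lactamase reporter read by FRET substrate fluorescence after 2 hours at room temperature.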
smiles,measurement,setting,value
CCCCCCCCCCCC,Potency,[1],inactive
same,Potency,[2],inactive
same,"activity change, negative = inhibition",[3]; at 92.4 µM (top of the series),inactive: 3.47%
same,Potency,[4],inactive
COCCOc1cc2cc(C(=O)NC3CCN(C(C)C)CC3)n(CC(=O)Nc3ccc(Cl)cn3)c2cn1,"activity change, negative = inhibition",[5],inactive: -9.33%
same,activation,[6],inactive: 0.821%
same,Potency,[7],inactive
O=C(O)Cc1ccccc1Nc1c(Cl)cccc1Cl,activation,[8]; at 42.5 µM (top of the series),inactive: 2.28%
same,activation,[8]; at 92.4 µM (top of the series),inactive: 0.768%
NC1CCN(c2nc3c(cc2F)c(=O)c(C(=O)O)cn3-c2ccc(F)cc2F)C1 (stereo unspecified),activity change,[9],inactive: 3.35%
same,Potency,[10],inactive
same,Potency,[11],inactive
same,Potency,[12],active: 29.8 µM
NCCCC[C@H](N[C@@H](CCc1ccccc1)C(=O)O)C(=O)N1CCC[C@H]1C(=O)O,activation,[8]; at 42.5 µM (top of the series),inactive: -0.524%
same,Potency,[13],inactive
same,Potency,[14],inactive
Cc1cc(C2CCCCC2)n(O)c(=O)c1,activation,[15],inactive: -2.64% [at 42.5 µM]
O=C(O)O,activation,[8]; at 8.39 µM (top of the series),inactive: 6.98%
CNCCC(Oc1ccc(C(F)(F)F)cc1)c1ccccc1 (stereo unspecified),activation,[8]; at 42.5 µM (top of the series),inactive: -22.4%
same,activation,[8]; at 92.4 µM (top of the series),inactive: -23.4%
same,Potency,[13],inactive
O=C(O)CCNC(=O)c1ccccc1,activation,[8]; at 42.5 µM (top of the series),inactive: 0.136%
N=C(N)N1CCc2ccccc2C1,Potency,[16],inactive
same,Potency,[1],inactive
same,Potency,[2],inactive
same,"activity change, negative = inhibition",[3]; at 8.39 µM (top of the series),inactive: -8.37%
same,activation,[4],inactive: -0.711% [at 8.39 µM]
COC(=O)C(c1ccccc1Cl)N1CCc2sccc2C1 (stereo unspecified),Potency,[16],inactive
same,Potency,[1],active: 10.7 µM [activator]
same,Potency,[2],active: 21.1 µM
same,"activity change, negative = inhibition",[5],inactive: -18.5%
same,activation,[6],inactive: 2.33%
same,"activity change, negative = inhibition",[3]; at 42.5 µM (top of the series),inactive: 2.22%
same,Potency,[4],inactive
CC(C)NCC(O)c1cc(O)cc(O)c1 (stereo unspecified),Potency,[16],inactive
same,Potency,[1],inactive
same,Potency,[2],inactive
same,"activity change, negative = inhibition",[3]; at 42.5 µM (top of the series),inactive: 1.79%
same,Potency,[4],inactive
F[Si-2](F)(F)(F)(F)F,Potency,[17],inactive
same,activity change,[9],inactive: -0.18% and inactive: 2.65%
same,Potency,[10],inactive
same,Potency,[11],inactive
same,Potency,[12],inactive
NC[C@H]1O[C@H](O[C@H]2[C@H](O)[C@@H](O[C@H]3O[C@H](CO)[C@@H](O)[C@H](N)[C@H]3O)[C@H](N)C[C@@H]2N)[C@H](O)[C@@H](O)[C@@H]1O,Potency,[16],inactive
same,Potency,[1],inactive
same,Potency,[2],inactive
same,"activity change, negative = inhibition",[3]; at 8.39 µM (top of the series),inactive: 8.83%
same,activation,[4],inactive: -0.0169% [at 8.39 µM]
[Cl][Pt-2]([Cl])([Cl])[Cl],Potency,[10],inactive
same,Potency,[11],inactive
C[N+](C)(C)CCO,Potency,[16],inactive
same,Potency,[1],inactive
same,"activity change, negative = inhibition",[3]; at 92.4 µM (top of the series),inactive: 18.6% and inactive: -3.04%
same,Potency,[4],inactive
O=C(O)[C@@H](O)[C@H](O)[C@H](O)[C@@H](O)C(=O)O,"activity change, negative = inhibition",[3]; at 42.5 µM (top of the series),inactive: 7.4%
same,Potency,[4],inactive
CSc1ccc(C(=O)c2[nH]c(=O)[nH]c2C)cc1,"activity, negative = inhibition",[18],inactive: 2.21%
CCN1CCC[C@H]1CNC(=O)c1c(OC)ccc(Br)c1OC,"activity, negative = inhibition",[19]; at 23.6 µM (top of the series),inactive: 0.133%
N[C@@H](CCC(=O)N[C@@H](CS)C(=O)NCC(=O)O)C(=O)O,"activity, negative = inhibition",[19]; at 10.5 µM (top of the series),inactive: -0.194%
same,Potency,[13],inactive
same,Potency,[20],inactive
same,Potency,[14],inactive
CN1CCc2cccc3c2[C@H]1Cc1ccc(O)c(O)c1-3,Potency,[21],active: 24.6 µM and active: 23.7 µM
[Cl][Dy]([Cl])[Cl],Potency,[21],inactive
CC1(C)S[C@@H]2[C@H](NC(=O)[C@H](N)c3ccccc3)C(=O)N2[C@H]1C(=O)O,"activity, negative = inhibition",[19]; at 23.6 µM (top of the series),inactive: 1.49%
same,"activity, negative = inhibition",[19]; at 51.3 µM (top of the series),inactive: 0.009% and inactive: 4.34%
O=S(=O)(O)c1ccc(O)c2ncccc12,Potency,[21],inactive
CC[C@]1(O)C[C@@H]2CN(CCc3c([nH]c4ccccc34)[C@@](C(=O)OC)(c3cc4c(cc3OC)N(C)[C@H]3[C@@](O)(C(=O)OC)[C@H](OC(C)=O)[C@]5(CC)C=CCN6CC[C@]43[C@@H]65)C2)C1,Potency,[4],inactive
Oc1ccc(C2CNCCc3c2cc(O)c(O)c3Cl)cc1 (stereo unspecified),"activity, negative = inhibition",[19]; at 23.6 µM (top of the series),inactive: 4.42%
CC1=NS(=O)(=O)c2cc(Cl)ccc2N1,"activity, negative = inhibition",[19]; at 23.6 µM (top of the series),inactive: 4.92%
